Bioassay records: PubChem, several laboratories
HDAC3 inhib: HDAC3 deacetylase inhibitors, primary screen, biochemical, fluorescence, cell-free homogeneous; Histone deacetylase 3 (Homo sapiens), O15379; recombinant HDAC3, fluorogenic peptide/trypsin coupled; inhibition, % at 8.3 µM; actives 0.15% (n = 320,000); AID 2718, 2010; in the data active = inhibition above about 26%, passing the limit was not always enough
MC4R antagonist: MC4R antagonists of cAMP signaling, primary screen, cell-based, TR-FRET, antagonist arm of biased-ligand search | Melanocortin receptor 4 (Homo sapiens), P32245 | MC4R-expressing cells, MTII-stimulated cAMP, LANCE TR-FRET | inhibition, % at 6.5 µM | actives 0.48% (n = 360,000);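 active = inhibition above its plate's cutoff, the mean of tested wells on that plate plus 3 SD, cut at about 29% in these data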
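System – human MC4R-expressing U2OS cells · Also added – Melanotan II · Dosing – one concentration, 6.5 µM nominal · Timing – 30-min compound, 1-h challenge, 1-h detection, room temperature · Measured by – Eu-cAMP/anti-cAMP TR-FRET, emission 671 nm · Replicates – singlicate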
UUG fidelity: modulators of start codon recognition fidelity in yeast; AID 602363; hit rate 0.13% among 350,000; activity score, % at 18.7 µM; S. cerevisiae UUG-firefly luciferase reporter, luminescence/redox ratio;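 active = replicate mean at a twofold rise or more, about +100% in these data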;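 note: firefly luciferase made from a UUG start codon reports start codon fidelity; reporter light over untreated wells divided by growth signal over untreated wells; some hits fall short of that in this replicate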
MC4R ag barr: MC4R agonists recruiting beta-arrestin, primary screen, cell-based, luminescence, agonist arm of biased-ligand search; actives 0.98% (n = 360,000); U2OS MC4R beta-arrestin complementation; percent of melanotan II response, DMSO zero; AID 540308, 2011; Melanocortin receptor 4 (Homo sapiens), P32245; activation, % at 8.9 µM;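 active = activation above a per-plate cutoff, the mean activation of sample wells on that plate plus 3 SD, cut at about 8% in these data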
ALR inh: inhibitors of human sulfhydryl oxidase ALR; inhibition, % (no concentration beside the values); AID 485317; purified ALR, DTT oxidation, H2O2 HRP-luminol luminescence; 290,000 tested, 3.8% active; P55789;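 active means mean and each replicate at 75% or more; inconclusive means only one of the two met; inactive means neither met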;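 further: stock transfer was 7.5 nL into about 7.5 µL; 0% = neutral wells and 100% = wells with inactivated enzyme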
NALP1 yeast inh: NALP1 inflammasome inhibitors in reconstituted yeast, colorimetric, S. cerevisiae, triplicate retest. S. cerevisiae NALP1/ASC/caspase-1 growth, X-gal OD620, 72 h. inhibition, % at 10 µM. actives 0.61% (n = 280,000). AID 2071, 2009; in the data active = inhibition mostly above about 24%, no sharp cut-off; inactive = mostly below about 32%
Hits are given with their value; 0 = inactive; - = not tested or not shown. Hits are enriched below; roughly 4.2% of the tested compounds scored in any of these assays.

The chains behind the UniProt entries cited, without tags or fusion partners.
Melanocortin receptor 4 (Homo sapiens), P32245, UniProt P32245, whole entry, looked up: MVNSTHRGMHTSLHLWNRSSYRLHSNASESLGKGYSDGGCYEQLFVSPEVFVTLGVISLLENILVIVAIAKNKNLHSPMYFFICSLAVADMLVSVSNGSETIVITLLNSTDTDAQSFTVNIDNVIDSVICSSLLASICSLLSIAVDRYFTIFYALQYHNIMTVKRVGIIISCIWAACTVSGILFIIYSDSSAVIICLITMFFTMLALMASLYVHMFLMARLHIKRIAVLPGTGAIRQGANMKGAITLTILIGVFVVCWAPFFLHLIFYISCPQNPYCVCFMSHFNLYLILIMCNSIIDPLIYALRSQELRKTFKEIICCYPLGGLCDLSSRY

SMILES | HDAC3 inhib | MC4R antagonist | UUG fidelity | MC4R ag barr | ALR inh | NALP1 yeast inh
Cc1ccc2occ(C3NC(C(=O)O)CS3)c(=O)c2c1 (stereo not given) | 0 | 0 | - | 0 | 98 | 0
Cc1ccc2occ(C3N[C@H](C(=O)O)CS3)c(=O)c2c1 (stereo not given in full) | 0 | 0 | 0 | 0 | 99 | 0
CCS(=O)(=O)NCC[C@@H]1CC[C@@H](NC(=O)C2CCC2)[C@@H](CO)O1 | - | - | 0 | - | - | -
COc1cccc(C(=O)Nc2ccc3c(c2)C(=O)N(C)[C@@H]2CC[C@H](CC(=O)NCc4ccccc4F)O[C@H]2CO3)c1 | - | - | 0 | - | - | -
Cc1cccc(C)c1-n1nnnc1C(C)(C)N1CCN(N=O)CC1 | 0 | 0 | - | 0 | 0 | 37
C[C@H](CO)N1C[C@H](C)[C@H](CN(C)C(=O)c2cccc(F)c2)Oc2ncc(-c3cccnc3)cc2C1=O | - | - | 0 | - | - | -
CCS(=O)(=O)N1CCCCN2[C@@H](CO)[C@H](c3ccc(C#Cc4ccccc4OC)cc3)[C@@H]2C1 | - | - | 0 | - | - | -
CCCc1cnc(NCCNCC(O)COc2ccc(Cl)c(Cl)c2)nc1 (stereo not given) | 0 | 0 | 0 | 8.4 | 0 | 0
O=C(O)CCn1cc(/C=C2/NC(=S)N(c3ccccc3)C2=O)c(-c2ccccc2)n1 | 0 | 0 | - | 0 | 97 | 0
COc1ccc(Cn2c(=O)c3cccnc3n(Cc3ccc([N+](=O)[O-])cc3)c2=O)cc1 | 0 | 0 | 0 | 0 | 0 | 32
COc1ccc(CCn2c(=O)c3cccnc3n(Cc3ccc([N+](=O)[O-])cc3)c2=O)cc1OC | - | 0 | - | 0 | - | 0
O=C(NNC(=O)c1ccco1)c1ccco1 | - | 0 | 0 | 0 | - | -
O=C(c1cc(C(=O)c2ccco2)cc(C(=O)c2ccco2)c1)c1ccco1 | 0 | 0 | - | 0 | 97 | 0
COCC(=O)N(C)C[C@@H]1Oc2cc(C#Cc3ccccc3)ccc2S(=O)(=O)N([C@@H](C)CO)C[C@H]1C | - | - | 0 | - | - | -
CCOC(=O)C1CCCN(C2=NC(=O)/C(=C/c3ccc(O)c(OCC)c3)S2)C1 (stereo not given) | 0 | 0 | 0 | 0 | 96 | 0
CCOc1cc(/C=C2\SC(=O)N=C2N)ccc1O | - | 0 | 0 | 0 | - | 0
CCOc1cc(/C=C2\SC(N)=NC2=O)ccc1O | 0 | 0 | 0 | 0 | 98 | 0
CCOC(=O)CSC1=NC(=O)/C(=C/c2ccc(OC)cc2)S1 | 80 | 0 | - | 0 | 99 | 0
CCOc1cc(/C=C2\N=C3CCCCCN3C2=O)ccc1O | 0 | 0 | - | 0 | 99 | 0
Cc1ccccc1S(=O)(=O)N1CC[C@@H]2[C@H](CO)Nc3ccc(C#Cc4ccccc4)cc3[C@@H]21 | - | - | 0 | - | - | -
C[C@H](CO)N1C[C@H](C)[C@H](CN(C)S(=O)(=O)c2cccc(F)c2)Oc2ncc(-c3cccc(F)c3)cc2C1=O | - | - | 0 | - | - | -
COc1ccc(S(=O)(=O)Nc2ccc3c(c2)C(=O)N([C@H](C)CO)C[C@H](C)[C@H](CN(C)Cc2ccc4c(c2)OCO4)O3)cc1 | - | - | 0 | - | - | -
COc1ccccc1S(=O)(=O)N[C@H]1CC[C@@H](CCNC(=O)C2CCCCC2)O[C@H]1CO | - | - | 0 | - | - | -
CCOC(=O)C1CCCN(C2=NC(=O)/C(=C/c3ccc(OC)cc3)S2)C1 (stereo not given) | 0 | 0 | 0 | 0 | 0 | 0
CCOC(=O)C1CCN(C2=NC(=O)/C(=C/c3ccc(O)cc3)S2)CC1 | 0 | 0 | 0 | 0 | 98 | 0
CCOC(=O)C1CCCN(C2=NC(=O)/C(=C/c3ccc(N(C)C)cc3)S2)C1 (stereo not given) | 0 | 0 | 0 | 0 | 100 | 0
O=C(c1cccnc1)N1CCCCN2[C@H](CO)[C@H](c3ccc(C#Cc4ccccc4)cc3)[C@@H]2C1 | - | - | 0 | - | - | -
CCOC(=O)/C(=N\Nc1ccccc1Cl)N(C)C1CCCCC1 | 0 | 0 | - | 0 | 99 | 0
C[C@@H]1CCCCO[C@H](CN(C)C(=O)C2CCCCC2)[C@H](C)CN([C@H](C)CO)C(=O)c2cc(NC(=O)NC3CCCCC3)ccc2O1 | - | - | 0 | - | - | -
